# Yeast mating assay 1: variants of the scFv Ab-14

Values reported by Engelhart et al. 2022, doi:10.1038/s41597-022-01779-4 (FLAb copy).

Target: peptide PDVDLGDISGINAS, taken from heptad repeat 2 (HR2) of SARS-CoV-2 spike.

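Phage display of a naive human antibody library on the peptide gave the parent. The library (AAYL49) carries one to three amino acid substitutions per variant, with no insertions or deletions. The assay is AlphaSeq: two haploid yeast populations carry antibody and antigen on their surface. Binding brings cells together so that they mate, and sequencing counts the barcode pairs among the diploids. Each replicate has its own calibration line, from reference interactions of the BCL2 family. Mating was done three times.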

The variants keep the light chain, the linker and the frameworks of Ab-14 (scFv order VH, a (GGGGS)3 linker, VL).
VH: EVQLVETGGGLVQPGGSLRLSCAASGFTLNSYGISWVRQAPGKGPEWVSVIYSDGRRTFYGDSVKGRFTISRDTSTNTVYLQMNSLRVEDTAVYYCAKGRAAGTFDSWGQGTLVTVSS
VL: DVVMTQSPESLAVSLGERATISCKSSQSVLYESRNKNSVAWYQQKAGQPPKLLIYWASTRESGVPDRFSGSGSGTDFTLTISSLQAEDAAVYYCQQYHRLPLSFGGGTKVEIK

Variants are written as CDR1, CDR2 and CDR3 of the heavy chain (limits as in the source). Parent: GFTLNSYGIS, VIYSDGRRTFYGDSVK, GRAAGTFDS.
Each Kd is an estimate from the mating assay, the geometric mean of the replicates in which the pair was seen; lower is stronger.
"nd" means that the variant was in the library but no mating with the target was seen in any replicate; the authors take this as a sign of poor binding, and no number exists.
As a blank, each scFv also met three strains without target: over library AAYL49, 15% of these pairings were detected, typically at 11 µM and seldom below 680 nM.

For GFTLNSYGIS, VIYSGGRRTFYGDSVK, KRAAGTFDS, the assay gave 19 µM (1 of 3 replicates).
For GFTLNSYGIS, CIYSDGRRTFQGDSVK, GRAAGTFDS, the assay gave nd (0 of 3 replicates).
For AFTLNSYGHS, VIHSDGRRTFYGDSVK, GRAAGTFDS, the assay gave nd (0 of 3 replicates).
For GFTLNSYGIS, VIYSDGRRTFYGDSVK, YCAAGTFDS, the assay gave 18 nM (3 of 3 replicates).
For GFTLNSYGIS, VIYNDGRRTFYIDSVG, GRAAGTFDS, the assay gave nd (0 of 3 replicates).
For GFTLNSYGIE, VIYSDGHRTFYGDSVK, GRAAGTFDS, the assay gave nd (0 of 3 replicates).
For GFQLNSYGIS, VIYSDGRRTFYGDSVK, GRNAGTFDS, the assay gave 3.3 nM (3 of 3 replicates).
For GFTLNSYGIS, VIYSDGRRTFYGDCVK, GRAAYTTDS, the assay gave 53 nM (3 of 3 replicates).
For GFGLNSYGIS, VIYSDGRRTFQGDSVK, GRAFGTFDS, the assay gave 19 µM (2 of 3 replicates).
For LFTQNSYGIS, GIYSDGRRTFYGDSVK, GRAAGTFDS, the assay gave nd (0 of 3 replicates).
For GFTLNFYGIS, VIYSDGRNTFYGDSVK, GRAAGTDDS, the assay gave 8.1 µM (2 of 3 replicates).
For GFTANSYGIS, VIYSDGRRTFYHDVVK, GRAAGTFDS, the assay gave 6.9 µM (1 of 3 replicates).
For GFTLNSYGIS, VIYADGVRTFYGDSVK, GFAAGTFDS, the assay gave 1.5 nM (3 of 3 replicates).
For GFTLNSYGIS, VIYSDGRKTFDGDMVK, GRAAGTFDS, the assay gave 410 µM (2 of 3 replicates).
For GFTLNSYGAS, VIYSDGRRTFYRDSVK, SRAAGTFDS, the assay gave 1.8 µM (3 of 3 replicates).
For GFTLYSYGIS, VIYPDGRRTFYGDSTK, GRAAGTFDS, the assay gave nd (0 of 3 replicates).

Further variants, results first:

nd (0 of 3 replicates): GPTLNSYKIS, VIYSDGRRTFYGDSVK, GRAPGTFDS.
46 µM (3 of 3 replicates): GFTLNSYWIS, VIYSDGRRTFYGDSVK, GRARITFDS.
nd (0 of 3 replicates): GFTLNSYGIS, VEYSDGRRTFYGDSVK, RHAAGTFDS.
nd (0 of 3 replicates): GITLNSYGIS, VISSDGRRTDYGDSVK, GRAAGTFDS.
7.9 µM (2 of 3 replicates): GFTLNSYGIS, RIYSDGRRTFYGDSVK, GRAACTQDS.
nd (0 of 3 replicates): GFTHNSYGIS, KIYSDGRRTFWGDSVK, GRAAGTFDS.
nd (0 of 3 replicates): GFTLNSYGII, MIYSDGRLTFYGDSVK, GRAAGTFDS.
860 nM (3 of 3 replicates): GFTLNYYGIS, VIYSDGYRTFYGDSVK, GRGAGTFDS.
nd (0 of 3 replicates): GFTLNFYGIS, VIYSDGRRTFYGDEVK, GRACGTFDS.
nd (0 of 3 replicates): GFTLNSYGIK, GIYSDGRRTFYGDSVK, GRAAGTFDW.
9.6 nM (3 of 3 replicates): GFTLNSYGIS, VIYSDGRRHFYTDSVK, GRYAGTFDS.
nd (0 of 3 replicates): EITLNSYGIS, VIYSDGRRTFYGDSVK, GRAAGTFWS.
7.5 µM (1 of 3 replicates): GFTLNSYGIL, VIYSDGRRTFYGPSVK, GEAAGTFDS.
nd (0 of 3 replicates): GWWLNSYGIS, VIYSDERRTFYGDSVK, GRAAGTFDS.
nd (0 of 3 replicates): GFTLNSYGIS, VIDSDGRRTFYGDSMK, GRAAGTFDV.
3.7 µM (1 of 3 replicates): GFTGNSYGIS, VIYSDGRRTFNGDSVK, GRAAGTFDS.
nd (0 of 3 replicates): GFTLNSYGIS, VIYSDGRRTPYGRSVK, GRNAGTFDS.

The first 2 entries again:

{"CDR-H1": "GFTLNSYGIS", "CDR-H2": "VIYSGGRRTFYGDSVK", "CDR-H3": "KRAAGTFDS", "Kd (apparent)": "19 µM", "replicates with signal": "1/3"}
{"CDR-H1": "GFTLNSYGIS", "CDR-H2": "CIYSDGRRTFQGDSVK", "CDR-H3": "GRAAGTFDS", "Kd (apparent)": "nd", "replicates with signal": "0/3"}